# According to patent US8361998B2, “Compounds and their use as IKACh blockers” (AstraZeneca AB, priority 2010, dated 2013):
# Protein sequences, listed by entry. Tags and fused reporters are not part of them.
# UniProt P48544, whole entry: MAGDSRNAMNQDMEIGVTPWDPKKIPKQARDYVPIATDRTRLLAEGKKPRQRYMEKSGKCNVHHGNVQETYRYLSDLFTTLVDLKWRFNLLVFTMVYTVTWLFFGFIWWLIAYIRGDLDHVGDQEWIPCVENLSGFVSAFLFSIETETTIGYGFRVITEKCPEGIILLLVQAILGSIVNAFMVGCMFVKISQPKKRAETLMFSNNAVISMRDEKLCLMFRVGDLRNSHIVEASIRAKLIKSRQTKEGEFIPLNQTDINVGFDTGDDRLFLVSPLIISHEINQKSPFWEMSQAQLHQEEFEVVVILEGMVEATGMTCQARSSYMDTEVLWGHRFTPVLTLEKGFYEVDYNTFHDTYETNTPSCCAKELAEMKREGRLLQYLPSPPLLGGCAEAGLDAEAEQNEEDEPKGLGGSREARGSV
# UniProt P48549, whole entry: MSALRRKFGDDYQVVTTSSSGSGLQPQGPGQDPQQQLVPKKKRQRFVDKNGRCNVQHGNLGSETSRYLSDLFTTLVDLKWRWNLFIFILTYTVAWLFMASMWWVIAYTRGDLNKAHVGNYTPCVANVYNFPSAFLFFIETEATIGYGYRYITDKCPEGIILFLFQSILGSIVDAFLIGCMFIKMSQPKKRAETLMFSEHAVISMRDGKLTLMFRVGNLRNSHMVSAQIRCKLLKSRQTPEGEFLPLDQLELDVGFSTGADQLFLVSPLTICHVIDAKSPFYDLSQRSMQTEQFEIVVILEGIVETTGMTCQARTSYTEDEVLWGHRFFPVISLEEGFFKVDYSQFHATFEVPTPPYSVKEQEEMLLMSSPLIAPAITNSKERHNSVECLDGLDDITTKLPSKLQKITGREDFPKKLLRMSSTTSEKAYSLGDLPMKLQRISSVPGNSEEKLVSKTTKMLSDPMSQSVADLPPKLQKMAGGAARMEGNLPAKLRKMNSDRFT
# Biological target: human cardiac ion channel proteins hKir3.1/Kir3.4 (Homo sapiens, UniProt P48544+P48549)
# Experiment: Atomic Absorption Screening (AAS) Rb efflux assay of hKir3.1/Kir3.4 block, carbachol/high K+ stimulated, 10-pt or 7-pt CR
# Conditions: read-out: IKACh IC50 10-pt CR, AAS, 10-pt CR (0.003 to 67 μmol/L), CHO-K1 cells expressing hKir3.1/Kir3.4, mean of >4 replicates
# Description: Human KCNJ3 encoding Kir3.1 (Genbank acc. No. NM_002239) was inserted between EcoRI and NotI in the pIRESneo3 vector (Clontech Laboratories, Inc. CA, USA). Human KCNJ5 encoding Kir3.4 (Genbank Acc. No. BC069482) was inserted between EcoR1 and Not1 in the pIRESpuro3 vector (Clontech Laboratories, Inc. CA, USA). A Kozak sequence (GCCACC) was introduced before the start codon ATG of both constructs. Chinese Hamster Ovary K1, CHO-FLP/IN, cells (Invitrogen Corporation, Paisley, UK) were transfected simultaneously using Lipofectamine 2000 reagent (Invitrogen Corporation, Paisley, UK). Geneticin 600 μg/mL (Invitrogen Corporation, Paisley, UK) and puromycin 3 μg/mL (BD Bioscience) were added to the cell culture medium 3 days after transfection. Two weeks after transfection, colonies had appeared and were manually picked and sorted to one cell per well in a 96-well plate. Cells were then tested for Kir3.1 and Kir3.4 expression using membrane potential assay, Western Blot and Immunocytochemistry. […] The cell line was re-sorted by flow cytometry and resulting clones were assayed electrophysiologically using IonWorks (Molecular Devices) and later validated on the Q-Patch (Sophion A/S).
# The stable cell line was cultured in DMEM/F12 with Glutamax 1 (Invitrogen Corporation, Paisley, UK), supplemented with foetal bovine serum 10%, puromycin 3 μg/mL, hygromycin 300 μg/mL and geneticin 600 μg/mL (Invitrogen Corporation, Paisley, UK). Care was taken not to seed cells at too low density and cells were passaged at approximately 70-80% confluency. Cells used for patch-clamp experiments were prepared by washing using PBS (—Mg, —Ca^2+), 2 times, detached using Accutase (Sigma). For Q-Patch measurements, storage medium was prepared fresh by adding 1.25 mL of 1M Hepes (GibcoBRL) to 50 mL CHO-SFM II medium (GibcoBRL) and detached cells were diluted to 2 million cells/mL in this medium. Frozen (Cryopreserved) cells were used for Atomic Absorption Screening (AAS) and plated poly-D-lysine 384-well plates (Greiner) at a density of 11,000-13,000 cells/well, the day before assay.
# The blocking effects of compounds on the human cardiac ion channel proteins hKir3.1/Kir3.4 were assessed in CHO-K1 cells stably expressing the channel proteins using Atomic Absorption Screening (AAS). Cells were washed and then loaded with 25 μL Rb-loading buffer for three hours at 37° C. After that, the cells were washed again and 25 μL of diluted compound was transferred to the cell plate, incubated for 5 min in RT, and then […] of Carbachol/high K+ (10 μM carbachol and 20 mM KCl final concentration) buffer added to stimulate the cells and open the Kir3.1/Kir3.4 channel. After 10 min stimulation, […] of the supernatant was transferred to a new microplate, 45 μL washing buffer added to the supernatant and the level of Rb in the supernatant was then measured using an Aurora ICR 8000. Compounds were studied at concentrations ranging from 0.003 to 67 μmol/L (dilutions by three, 10-pt CR) or from 0.037 to 27 μmol/L (dilutions by three, 7-pt CR).
# Stock solutions of compounds were prepared in DMSO 10 mM and stored at RT. Buffers used for AAS contained (in mM): HEPES 20, NaCl 150, MgCl2 1.0, CaCl2 2.0 and NaH2PO4 0.8 and Glucose 10 (wash 1) or KCl 5 and Glucose 5 (wash 2) or KCl 5 (dilution buffer). The High K^+ channel opener buffer contained (in mM): HEPES 20, NaCl 130, MgCl2 1.0, CaCl2 2.0 and NaH2PO4 0.8 together with KCl 20. Solutions used for Q-Patch (extracellular) in mM: NaCl 145, KCl 4, CaCl2 2.0, MgCl2 1.0, HEPES 10 and glucose 10. The high K^+ extra cellular solution used for Q-Patch in mM: NaCl 96.7, KCl 50.7, CaCl2 2.0, MgCl2 1.0, HEPES 10 and glucose 10 while the intra cellular solution used was (in mM): KCl 120, CaCl2 5.374, MgCl2 1.75, EGTA 10, KOH 3.125, HEPES 10, Na2ATP 4.
# Results are given as mean IC50 of >4 replicates (10-pt CR, AAS) or >3 replicates (7-pt CR, AAS). Some of the data in Table 1 are mean values of two or more runs. […]
row,Structure (SMILES),IC50 [µM]
1,"CCC[C@@H](CN1CC(O)C1C)N(C)C(=O)c1ccc(Cl)cc1 (single isomer, unassigned) [43.1, isomer 1]",1.3
2,"CCC[C@@H](CN1CC(O)C1C)N(C)C(=O)c1ccc(Cl)cc1 (single isomer, unassigned) [43.4, isomer 2]",0.72
3,"CCC[C@@H](CN1CC(O)C1C)N(C)C(=O)c1ccc(Cl)cc1 (single isomer, unassigned) [43.1, isomer 2]",3
4,"CCC[C@@H](CN1CC(O)C1C)N(C)C(=O)c1ccc(F)cc1 (single isomer, unassigned) [43.6, isomer 1]",9.5
5,"CCC[C@@H](CN1CC(O)C1C)N(C)C(=O)c1ccc(F)c(F)c1 (single isomer, unassigned) [43.5, isomer 1]",8.4
6,"CCC[C@@H](CN1CC(O)C1C)N(C)C(=O)c1ccc(Cl)cc1 (single isomer, unassigned) [43.4, isomer 1]",1.7
